{"source": "paper PMC2697320", "about": "“Identification of the high affinity binding site in the Streptococcus intermedius toxin intermedilysin for its membrane receptor, the human complement regulator CD59” (Molecular Immunology, 2009)", "target": "Recombinant soluble CD59 comprising amino acids 1-76 with an 11 amino acid Ser/Gly linker and termin (human)", "assay": "SPR; Biacore T100; CD59 immobilised through its terminal Cys by thiol coupling on a CM5 chip; analyte flowed at 30 ul/min, 25 C; HBS with 0.05% surfactant P20 and 3 mM EDTA; affinity by steady state analysis", "data": [{"substance": "Intermedilysin (recombinant mature ILY) (natural protein)", "values": [{"measurement": "Kd", "value": 4.29, "unit": "nM"}]}]}
